## Antibody variant affinities, Ab-14 light chain, assay 1

Values reported by Engelhart et al. 2022, doi:10.1038/s41597-022-01779-4 (FLAb copy).

Antigen: PDVDLGDISGINAS, a 14-residue peptide of the SARS-CoV-2 spike HR2 region.

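The starting antibody came from a phage panning campaign against this peptide. Variants in AAYL50 differ from the parent at up to three CDR positions; double and triple changes were sampled at random. AlphaSeq pools MATa yeast showing the antibodies with MATalpha yeast showing the peptide. Pairs that bind mate more often; barcode pairs of the diploids are counted by sequencing. Scores were corrected for input abundance and mapped to Kd with protein pairs of known affinity run in the same pool. There are three technical replicates.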

Ab-14 is the parent antibody, in scFv form: VH, then the linker GGGGSGGGGSGGGGS, then VL. The heavy chain is unchanged in all variants.
VH: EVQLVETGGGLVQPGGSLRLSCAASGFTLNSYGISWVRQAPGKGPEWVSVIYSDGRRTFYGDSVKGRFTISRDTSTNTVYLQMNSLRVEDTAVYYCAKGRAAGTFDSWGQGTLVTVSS
VL: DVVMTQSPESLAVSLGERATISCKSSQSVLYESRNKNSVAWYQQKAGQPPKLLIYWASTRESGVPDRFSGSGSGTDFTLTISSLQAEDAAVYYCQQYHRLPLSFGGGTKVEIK

Positions count from residue 1 of the parent VL; N37F puts F in place of N. The Kd shown is the geometric mean over detected replicates; a lower Kd is a better binder. An entry "not detected" has no value in the source: the pair was not observed among the diploids in any replicate. This suggests poor binding but is not conclusive.

| changes | Kd (apparent) | replicates with signal |
|---|---|---|
| N37F E61D L100R | not detected | 0/3 |
| L30K S62G Q96R | 3.5 µM | 1/3 |
| R34T Y97I | 47 nM | 3/3 |
| S25W N35Y Q96E | 14 µM | 2/3 |
| N37T Q96T P101L | 5.1 µM | 1/3 |
| S26P Y31H H98L | 8.1 nM | 3/3 |
| L30P V39E P101W | not detected | 0/3 |
| L30Y A57D H98S | 4.0 nM | 3/3 |
| S28F S38N R60D | not detected | 0/3 |
| H98K L100D P101C | not detected | 0/3 |
| Q27I Y31H Y97A | 3.6 nM | 3/3 |
| S25R W56N Q95F | 1.2 nM | 3/3 |
| L30A S62A L100N | not detected | 0/3 |
| K24I S25C L100N | not detected | 0/3 |
| K36E H98W P101A | 9.8 nM | 3/3 |
| K24F S25G S38M | 64 nM | 1/3 |
| S33M W56D Q96T | 4.0 nM | 3/3 |
| E32L N35M Q95L | 1.4 µM | 3/3 |
| K36E R60C S103E | not detected | 0/3 |
| V29N R60F E61P | 60 µM | 2/3 |
| S33W E61Y S62R | 10 µM | 2/3 |
| V29N S33E Y97K | 130 µM | 2/3 |
| T59G Q95T L102M | 9.4 µM | 1/3 |
| T59D Q96M L100N | not detected | 0/3 |
| S25M N35V S58N | 1.6 nM | 3/3 |
| N37M V39I L102E | 3.5 µM | 1/3 |
| S33P R60P P101W | 18 nM | 3/3 |
| E32L T59R R99V | 2.2 µM | 2/3 |
| S25N K36F Q96A | 780 nM | 3/3 |
| Q27P N35Q T59K | 9.0 nM | 3/3 |
| N35H Q96A L102F | 330 nM | 3/3 |
| S26F P101C | 420 µM | 2/3 |
| Q27L L30F T59Y | 36 nM | 3/3 |
| R34D R60Q P101A | 4.7 µM | 3/3 |
| K36T H98C R99Q | 270 nM | 3/3 |
| K24F R34N L102A | 14 nM | 3/3 |
| N35D V39R L102F | 2.0 mM | 1/3 |
| W56R R99Y P101A | not detected | 0/3 |
| S25E N37A S58C | not detected | 0/3 |
| S38Q A57P S62G | 45 µM | 2/3 |
| A57I L102V | 150 µM | 2/3 |
| Q27Y N35I Q95A | 180 nM | 3/3 |
| K24W S33N A40F | 26 µM | 3/3 |
| Y31C W56H P101F | not detected | 0/3 |
| S26R L30P R60G | 200 nM | 3/3 |
| R60W Y97N L100D | not detected | 0/3 |
| Q27A Y31D R34V | 150 nM | 3/3 |

Excerpt, the final 6 entries:

changes	Kd (apparent)	replicates with signal
Q27Y N35I Q95A	180 nM	3/3
K24W S33N A40F	26 µM	3/3
Y31C W56H P101F	not detected	0/3
S26R L30P R60G	200 nM	3/3
R60W Y97N L100D	not detected	0/3
Q27A Y31D R34V	150 nM	3/3

For reference, the parent read 4.4 nM as the reference entry and 48 nM as a member of this library. Nonspecific signal, from three strains lacking the peptide, appeared in 18% of pairings of library AAYL50, centred on 15 µM (5% of these signals below 970 nM); values are not corrected for it.